Assay results as given in US20110280849A1, “TUMOR SUPPRESSION USING HUMAN PLACENTA-DERIVED INTERMEDIATE NATURAL KILLER CELLS AND IMMUNOMODULATORY COMPOUNDS” (Anthrogenesis Corporation, priority 2010, published 2011).

Tested on: colorectal carcinoma cell line HCT-116
Conditions: ex vivo cultured (day 19) PINK cells pre-treated 24 hours, then co-cultured with HCT-116; control untreated PINK cells 24.3%

Nc1cccc2c1C(=O)N(C1CCC(=O)NC1=O)C2=O (racemic) [pomalidomide, 4-amino-2-[(3RS)-2,6-dioxopiperidin-3-yl)-1H-isoindole-1,3(2H)-dione]
cytotoxicity of compound-treated NK cells: 47.4%
